Laboratory results: patent publication US6630507B1, “Cannabinoids as antioxidants and neuroprotectants” (The United States of America as represented by the …, priority 1998, dated 2003)
Values joined by “and” are separate entries in the source; they are usually repeats but may differ in a detail not shown here. Equal entries are not always repeated.

Chains of the proteins cited; added tags and fusions are not shown.
UniProt P18054, whole entry: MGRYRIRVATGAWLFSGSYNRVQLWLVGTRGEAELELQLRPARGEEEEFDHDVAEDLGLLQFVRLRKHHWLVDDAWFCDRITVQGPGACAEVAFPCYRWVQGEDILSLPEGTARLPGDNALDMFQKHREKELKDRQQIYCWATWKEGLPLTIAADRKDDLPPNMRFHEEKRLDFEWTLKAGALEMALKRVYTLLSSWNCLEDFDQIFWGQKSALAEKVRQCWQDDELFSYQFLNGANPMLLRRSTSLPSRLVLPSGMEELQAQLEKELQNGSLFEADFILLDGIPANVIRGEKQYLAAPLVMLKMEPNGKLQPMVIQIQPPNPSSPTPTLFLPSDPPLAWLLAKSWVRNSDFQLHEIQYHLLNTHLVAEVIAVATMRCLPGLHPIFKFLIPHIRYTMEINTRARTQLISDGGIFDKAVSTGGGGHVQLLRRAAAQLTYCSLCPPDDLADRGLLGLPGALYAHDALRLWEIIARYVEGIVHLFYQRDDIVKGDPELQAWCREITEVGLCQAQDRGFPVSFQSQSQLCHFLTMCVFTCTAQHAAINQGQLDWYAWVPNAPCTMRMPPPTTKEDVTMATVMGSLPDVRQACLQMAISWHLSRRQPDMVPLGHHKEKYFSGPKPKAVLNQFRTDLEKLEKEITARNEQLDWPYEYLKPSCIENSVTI
UniProt P12527, whole entry: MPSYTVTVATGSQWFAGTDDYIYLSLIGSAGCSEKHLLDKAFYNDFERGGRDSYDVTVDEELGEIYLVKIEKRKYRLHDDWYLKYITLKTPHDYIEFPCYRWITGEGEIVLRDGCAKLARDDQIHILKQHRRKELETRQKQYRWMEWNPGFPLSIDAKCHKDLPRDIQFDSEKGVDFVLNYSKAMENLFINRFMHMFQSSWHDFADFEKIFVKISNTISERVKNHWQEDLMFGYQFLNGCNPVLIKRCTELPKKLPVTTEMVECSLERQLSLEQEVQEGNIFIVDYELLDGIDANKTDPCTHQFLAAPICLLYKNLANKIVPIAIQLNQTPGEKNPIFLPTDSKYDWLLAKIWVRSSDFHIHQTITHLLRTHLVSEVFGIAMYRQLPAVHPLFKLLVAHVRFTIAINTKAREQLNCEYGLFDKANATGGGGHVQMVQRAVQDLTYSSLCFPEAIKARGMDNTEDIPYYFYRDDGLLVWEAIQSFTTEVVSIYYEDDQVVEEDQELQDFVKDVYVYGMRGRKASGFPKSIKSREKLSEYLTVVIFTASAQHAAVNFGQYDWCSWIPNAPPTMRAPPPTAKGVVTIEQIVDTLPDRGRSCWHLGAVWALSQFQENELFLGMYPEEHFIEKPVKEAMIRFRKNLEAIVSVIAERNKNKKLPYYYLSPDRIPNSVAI
UniProt P16469, whole entry: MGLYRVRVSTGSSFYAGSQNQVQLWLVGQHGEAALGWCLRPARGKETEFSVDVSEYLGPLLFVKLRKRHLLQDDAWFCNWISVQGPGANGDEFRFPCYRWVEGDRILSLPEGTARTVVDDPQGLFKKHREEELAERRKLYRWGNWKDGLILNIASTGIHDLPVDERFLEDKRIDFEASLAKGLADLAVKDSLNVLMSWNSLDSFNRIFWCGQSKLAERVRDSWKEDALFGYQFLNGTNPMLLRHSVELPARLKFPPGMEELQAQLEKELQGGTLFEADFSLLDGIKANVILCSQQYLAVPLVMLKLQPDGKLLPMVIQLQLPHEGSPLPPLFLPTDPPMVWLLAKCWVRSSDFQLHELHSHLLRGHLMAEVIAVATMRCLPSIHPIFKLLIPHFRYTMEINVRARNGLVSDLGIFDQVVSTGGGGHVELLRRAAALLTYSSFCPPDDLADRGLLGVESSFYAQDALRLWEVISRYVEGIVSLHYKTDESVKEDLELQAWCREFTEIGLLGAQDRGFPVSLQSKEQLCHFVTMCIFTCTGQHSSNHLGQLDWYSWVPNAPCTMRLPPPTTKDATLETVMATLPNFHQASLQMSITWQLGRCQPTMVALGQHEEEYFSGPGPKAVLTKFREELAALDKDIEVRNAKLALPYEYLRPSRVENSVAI
UniProt P12530, whole entry: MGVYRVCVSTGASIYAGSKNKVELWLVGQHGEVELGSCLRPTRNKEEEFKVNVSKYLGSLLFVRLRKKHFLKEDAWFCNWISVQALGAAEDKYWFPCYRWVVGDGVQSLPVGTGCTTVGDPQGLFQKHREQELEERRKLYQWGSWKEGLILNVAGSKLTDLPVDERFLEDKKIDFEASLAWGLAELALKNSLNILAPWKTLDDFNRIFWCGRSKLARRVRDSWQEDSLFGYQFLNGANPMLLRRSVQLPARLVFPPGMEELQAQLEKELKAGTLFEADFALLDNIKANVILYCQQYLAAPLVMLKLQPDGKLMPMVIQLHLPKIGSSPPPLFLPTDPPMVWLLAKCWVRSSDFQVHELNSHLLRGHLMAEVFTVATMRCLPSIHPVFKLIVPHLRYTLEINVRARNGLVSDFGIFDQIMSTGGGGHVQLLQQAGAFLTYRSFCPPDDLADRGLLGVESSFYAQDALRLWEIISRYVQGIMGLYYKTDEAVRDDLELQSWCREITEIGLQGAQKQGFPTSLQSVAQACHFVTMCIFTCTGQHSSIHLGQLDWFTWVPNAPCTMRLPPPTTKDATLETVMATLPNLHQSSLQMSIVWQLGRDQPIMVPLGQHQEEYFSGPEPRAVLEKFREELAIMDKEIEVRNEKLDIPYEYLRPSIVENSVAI

Key:
[1] = tested on: 12-LO (type 1, leukocytes); test: Whole cell 12-HETE formation by human leukocytes; format: cell-based; details: FIG. 7B
Method: (§1) Human platelets and leukocytes were purified from buffy coat preparations (NIH Blood Bank) using a standard Ficoll based centrifugation method used in blood banks. Prior to use, cells were washed three times to eliminate contaminating cell types. Cultured rat basophillic leukemia cells (RBL-2H3) were used as a source of 5-lipoxygenase.
(§2) Cells were incubated with arachidonic acid and stimulated with the calcium ionophore A23187. Lipids were extracted and separated by reverse phase HPLC.
(§3) Cell pellets were triturated in DMEM culture media, aliquoted and pre-incubated for 15 minutes with 20 μM arachidonic acid and varying concentrations of cannabidiol and/or 40 μM nordihydroguaiaretic acid (a lipxygenase inhibitor). Platelets and leukocytes were also pre-incubated with 80 μM manoalide (Biomol) to prevent phospholipase A2 activation. Product formation was initiated by addition of 5 μM A23187 and incubation for 10 minutes at 37° C. At the end of the incubation, the reaction was stopped by addition of 15% 1M HCl and 10 ng/ml prostaglandin B2 (internal standard). Lipids were extracted with 1 volume of ethyl ether, which was dried under a stream of nitrogen. Samples were reconstituted in 50% acetonitrile:50% H2O and separated by reverse phase HPLC using a gradient running from 63% acetonitrile: 37% H2O:0.2% acetic acid to 90% acetonitrile (0.2% acetic acid) over 13 minutes.

[2] = biological target: 12-LO (type 2, platelets) (Homo sapiens, UniProt P18054); test: Whole cell 12-HETE formation by human platelets; format: cell-based; details: FIG. 7C
Method: as §1, §2, §3

[3] = Cyclic voltametry (oxidation potentials); format: physicochemical
Method: To investigate whether cannabinoids protect neurons against glutamate damage by reacting with ROS, the antioxidant properties of cannabidiol and other cannabinoids were assessed. Cyclic voltametry, a procedure that measures the ability of a compound to accept or donate electrons under a variable voltage potential, was used to measure the oxidation potentials of several natural and synthetic cannabinoids. These studies were performed with an EG&G Princeton Applied Research potentiostat/galvanostat (Model 273/PAR 270 software, NJ). The working electrode was a glassy carbon disk with a platinum counter electrode and silver/silver chloride reference. Tetraethylammonium chloride in acetonitrile (0.1 M) was used as an electrolyte. Cyclic voltametry scans were done from +0 to 1.8 V at scan rate of 100 mV per second. The reducing ability of cannabidiol (CBD), THC, HU-211, and BHT were measured in this fashion. Anandamide, a cannabinoid receptor ligand without a cannabinoid like structure, was used as a non-responsive control. Each experiment was repeated twice with essentially the same results.

NMDA receptor = details: cited from earlier work
5-LO = 5-LO (Rattus norvegicus, UniProt P12527); test: Whole cell lipoxygenase activity, 5-LO in RBL-2H3 cells; format: cell-based; details: read-out: EC50 of 5-LO inhibition; cultured RBL-2H3 cells, arachidonic acid, A23187
Method: as §1, §2, §3

[4] = tested on: neurons (AMPA/kainate receptor mediated toxicity); test: AMPA and kainate receptor mediated toxicity in cultured neurons (LDH release); format: cell-based, Wistar rat
[5] = tested on: cultured neurons (NMDAr mediated toxicity); test: NMDA mediated toxicity in cultured neurons (LDH release); format: cell-based, Wistar rat; details: 250 μM glutamate for 10 minutes, LDH after 18 hours
[6] = cited from earlier work
porcine 12-LO = porcine 12-LO (Sus scrofa, UniProt P16469); test: In vitro lipoxygenase enzyme assay, 12-LO; details: semi-purified porcine enzyme, linoleic acid substrate
[7] = Iron catalyzed dihydrorhodamine oxidation (Fenton reaction); details: 50 μM dihydrorhodamine, 300 μM t-butyl hydroperoxide, 0.5 μM iron, 5 minutes
rabbit 15-LO = rabbit 15-LO (Oryctolagus cuniculus, UniProt P12530); test: In vitro lipoxygenase enzyme assay, 15-LO
[8] = tested on: rat brains (ischemia damage); test: Middle cerebral artery occlusion, infarct volume and neurological deficit; format: in vivo
neurons (ROS toxicity) = test: t-butyl hydroperoxide induced toxicity in neurons (LDH release); format: cell-based, Wistar rat
Method: Primary neuronal cultures were prepared according to the method of Ventra et al. (J. Neurochem. 66:1752-1761, 1996). Fetuses were extracted by Cesarian section from a 17 day pregnant Wistar rat, and the feral brains were placed into phosphate buffered saline. The cortices were then dissected out, cut into small pieces and incubated with papain for nine minutes at 37° C. After this time the tissue was dissociated by passage through a fire polished Pasteur pipette, and the resultant cell suspension separated by centrifugation over a gradient consisting of 10 mg/ml bovine serum albumin and 10 mg/ml ovomucoid (a trypsin inhibitor) in Earls buffered salt solution. The pellet was then re-suspended in high glucose, phenol red free Dulbeco's modified Eagles medium containing 10% fetal bovine serum, 2 mM glutamine, 100 IU penicillin, and 100 μg/ml streptomycin (DMEM). Cells were counted, tested for vitality using the trypan blue exclusion test and seeded onto poly-D-lysine coated 24 multiwell plates. […]
To confirm that cannabinoids act as antioxidants in the intact cell, neurons were also incubated with the oxidant t-butyl hydroperoxide and varying concentrations of cannabidiol (FIG. 5A). […] Cell toxicity was assessed 18-20 hours after insult by measuring lactate dehydrogenase (LDH) release into the culture media. […]

C=C(C)[C@@H]1CCC(C)=C[C@H]1c1c(O)cc(CCCCC)cc1O
effect on 12-LO (production of 12-HETE), leukocytes [1]: no effect | effect on 12-LO (production of 12-HETE), platelets [2]: no effect | oxidation profile by cyclic voltametry ([3]; data not shown): oxidation profiles similar to cannabidiol and THC | oxidation (electron donation) potential by cyclic voltametry ([3]; scan +0 to 1.8 V, 100 mV per second, acetonitrile): donated electrons at a similar potential as the antioxidant BHT | activity at the NMDA receptor (NMDA receptor): inactive | EC50 (5-LO): 1.92 µM | neuroprotection in presence of cannabinoid receptor antagonist SR-141716A ([4]; 5 μM compound plus SR-141716A (FIG. 2B)): Neither THC nor cannabidiol neuroprotection was affected | neuroprotection in AMPA/kainate receptor toxicity assays ([4]; 100 μM Glu, 5 μM compound (FIG. 2A)): similarly protective | maximum protection against AMPA/kainate mediated neurotoxicity ([4]; 100 μM glutamate, 50 μM cyclothiazide, 500 nM MK-801, 18-20 hours): 80±17% | attenuation of glutamate toxicity, comparison of antioxidants ([4]; 100 μM glutamate, equimolar 5 μM antioxidant (FIG. 5B)): significantly more protective than either α-tocopherol or ascorbate | protection with AMPA ligand fluorowillardiine or kainate ligand 4-methyl-glutamate ([4]; fluorowillardiine 1.5 μM or 4-methyl glutamate 10 μM, data not shown): Comparable results | EC50 ([4]; read-out: EC50 of prevention of AMPA/kainate mediated neurotoxicity, 100 μM glutamate, 50 μM cyclothiazide, 500 nM MK-801, 18-20 hours): 2 to 4 µM and 3.3 µM | maximum protection against NMDAr mediated neurotoxicity [5]: 88±9% | EC50 ([5]; read-out: EC50 of prevention of NMDAr mediated neurotoxicity, listed as cannabidiol): 2 to 4 µM and 3.5 µM | psychoactive effect ([6]; Pharm. Rev. 38:21-43, 1986): devoid of psychoactive effect | toxicity following chronic administration to healthy volunteers ([6]; chronic administration, even large acute doses of 700 mg/day): No signs of toxicity or serious side effects | effect on 12-LO enzyme (porcine 12-LO): no effect | prevention of dihydrorhodamine oxidation [7]: prevented dihydrorhodamine oxidation | mode of 15-LO inhibition (rabbit 15-LO; FIG. 6B): competitive inhibitor | EC50 (rabbit 15-LO; read-out: EC50 of 15-LO inhibition, semi-purified enzyme, linoleic acid substrate, absorption at 234 nm): 0.598 µM | Volume of Infarct, Mean ([8]; 20 mg/kg ip 1 h before ischemia plus 10 mg/kg ip 8 hours later, mean of 7 animals, p = 0.016 vs control): 55.3 mm3 | Behavioral Deficit Score, Mean ([8]; same dosing, mean of 7 animals, p = 0.015 vs control): 2.0 | infarct size versus control ([8]; treated versus vehicle): approximately halved | neurological status of the animal ([8]; treated versus vehicle): substantial improvement | maximum protection against ROS toxicity (neurons (ROS toxicity); LDH 18-20 hours after insult): 88±9% | EC50 (neurons (ROS toxicity); read-out: EC50 of protection against ROS toxicity, LDH 18-20 hours after insult): 6 µM
